# Molecular target: T1, RPA3790 (Rhodopseudomonas palustris, UniProt Q6N3A4)
# T1 construct: gene TX73_019620; signal peptide or N-terminal TM helix removed; N-terminal 6xHis-TEV tag retained; E. coli
# T1 sequence (Q6N3A4 23-267): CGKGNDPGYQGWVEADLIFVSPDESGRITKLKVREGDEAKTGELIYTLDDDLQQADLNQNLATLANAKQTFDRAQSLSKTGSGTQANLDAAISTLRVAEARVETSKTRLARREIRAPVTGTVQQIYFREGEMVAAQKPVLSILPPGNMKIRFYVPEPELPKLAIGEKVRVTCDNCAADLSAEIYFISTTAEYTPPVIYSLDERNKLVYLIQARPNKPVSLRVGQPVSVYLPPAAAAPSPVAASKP
# Assay: fluorescence thermal shift (SYPRO orange)
# Type: binding
# Details: 100x ligand over protein (5 or 10 µM protein); 100 mM HEPES, 150 mM NaCl, pH 7.5
structure (smiles),measurement,value
O=C(O)c1ccccc1O [salicylic acid],ΔTm,"interaction such as that of salicylic acid with proteins RPA0668, RPA0985 and RPA3790"

# From PMC3223731, “Environment sensing and response mediated by ABC transporters” (BMC Genomics, 2011)
